Laboratory results taken from patent publication US7094798B1, “Inhibitors of checkpoint kinases (Wee1 and Chk1)” (Pfizer Inc, priority 2002, dated 2006).

These molecules were tested against T1, human Wee1 kinase aa215-647 (Homo sapiens, UniProt P30291) (assay: Wee1 inhibition filter binding assay (OY)). Settings: isolated Wee1 kinase, Poly Ornithine:Tyrosine (4:1) substrate; read-out: WEE1OY IC50.
T1 construct: human Wee1 kinase aa215-647; purchased Onyx Pharmaceuticals; host or cells: baculovirus protein expression system
T1 sequence (P30291 215-646 limits assumed): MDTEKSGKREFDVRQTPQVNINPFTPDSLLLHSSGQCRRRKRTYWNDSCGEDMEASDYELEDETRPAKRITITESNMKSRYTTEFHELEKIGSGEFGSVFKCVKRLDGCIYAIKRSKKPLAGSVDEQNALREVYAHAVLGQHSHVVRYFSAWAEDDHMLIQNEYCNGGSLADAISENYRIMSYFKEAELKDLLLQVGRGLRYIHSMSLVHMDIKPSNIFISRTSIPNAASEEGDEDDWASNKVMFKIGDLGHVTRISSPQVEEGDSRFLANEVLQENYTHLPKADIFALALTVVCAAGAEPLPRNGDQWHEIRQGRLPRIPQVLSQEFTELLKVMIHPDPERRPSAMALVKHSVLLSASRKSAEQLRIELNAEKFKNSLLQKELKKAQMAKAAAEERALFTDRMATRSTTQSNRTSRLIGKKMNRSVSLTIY
Type: biochemical

IC50 [nM]	SMILES
263	O=C1NC(=O)c2c1c(-c1c(Cl)cccc1Cl)cc1c2c2cc(O)ccc2n1CCO [Example 94, 4-(2,6-Dichlorophenyl)-9-Hydroxy-6-(2-hydroxyethyl)pyrrolo[3,4-c]carbazole-1,3(2H,6H)-dione]
9	O=C(O)CCn1c2ccc(O)cc2c2c3c(c(-c4ccccc4Cl)cc21)C(=O)NC3=O [Example 230, 3-(4-(2-Chlorophenyl)-9-hydroxy-1,3-dioxo-2,3-dihydropyrrolo[3,4-c]carbazol-6 (1H)-yl)propanoic acid]
428	O=C1NC(=O)c2c1c(-c1ccccc1)cc1oc3ccc(O)cc3c21 [Example 369, 9-Hydroxy-4-phenyl-1H-[1] benzofuro[3,2-e]isoindole-1,3(2H)-dione]
